Assay: Noncompartmental plasma pharmacokinetics of irinotecan and SN-38 with/without R115777
Settings: over the dose ranges studied (P=0.43)

Structure (SMILES): CCc1c2c(nc3ccc(OC(=O)N4CCC(N5CCCCC5)CC4)cc13)-c1cc3c(c(=O)n1C2)COC(=O)[C@]3(O)CC [irinotecan]
- AUC and peak plasma concentrations versus dose: increased in proportion with dose

— publication PMC2409716 (British Journal of Cancer, 2004)
